The values that follow come from patent US10961231B2, “NTCP inhibitors” (National Institute of Biological Sciences, Beijing, priority 2018, dated 2021).

Protein sequences, listed by entry. Tags and fused reporters are not part of them.
UniProt Q14973, whole entry: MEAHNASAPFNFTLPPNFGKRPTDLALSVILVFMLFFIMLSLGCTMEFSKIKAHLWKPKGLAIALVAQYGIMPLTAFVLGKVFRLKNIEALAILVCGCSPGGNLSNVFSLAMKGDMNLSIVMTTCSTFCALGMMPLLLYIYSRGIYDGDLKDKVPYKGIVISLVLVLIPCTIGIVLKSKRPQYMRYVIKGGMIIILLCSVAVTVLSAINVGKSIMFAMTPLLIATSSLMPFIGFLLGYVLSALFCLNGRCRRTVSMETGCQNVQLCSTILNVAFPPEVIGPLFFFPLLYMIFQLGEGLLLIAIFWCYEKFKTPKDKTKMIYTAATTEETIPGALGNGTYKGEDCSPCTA

SMILES strings stand for the structures.

The target of the experiment is NTCP (Homo sapiens, UniProt Q14973). The experiment in a line: [3H]-TCA uptake assay (NTCP inhibition). Type of experiment: cell-based. To be noted: given as a range; assay not given. The protocol:
[^3H]-TCA uptake assay. PTH and HepG2-NTCP cells were cultured in PMM for 24 hours to induce NTCP expression. After treated by DMSO or test compounds for 2 hours, the cells were then incubated with 1 μM [^3H]-taurocholate acid dissolved in Na^+ Ringer's buffer (the concentration of Na was 145 mM) for 15 minutes at 37° C. Subsequently, the cells were washed once in phosphate-buffered saline (PBS) and lysed in 50 μL 1% TritonX-100 in H2O for 5 minutes at room temperature. The lysate were totally transferred into a liquid scintillation 96 well plate and mixed with 200 μL liquid scintillation cocktail (Ultima Gold XR, PerkinElmer). Liquid scintillation counting was performed on a PerkinElmer 1450 LSC liquid scintillation counter.
Take `CC[C@@H]1NC(=O)[C@H]([C@@H]2OC(OCc3cc(Cl)ccc3Cl)C[C@H]2C)N(C)C(=O)[C@H](C(C)C)N(C)C(=O)[C@H](CC(C)C)N(C)C(=O)[C@H](CC(C)C)N(C)C(=O)[C@@H](C)NC(=O)[C@H](C)NC(=O)[C@H](CC(C)C)N(C)C(=O)[C@H](C(C)C)NC(=O)[C@H](CC(C)C)N(C)C(=O)CN(C)C1=O` (single isomer, unassigned): the IC50 is 1 to 1000 nM.

`CC[C@@H]1NC(=O)[C@H]([C@@H]2OC(OCc3ccc(Cl)c(Cl)c3)C[C@H]2C)N(C)C(=O)[C@H](C(C)C)N(C)C(=O)[C@H](CC(C)C)N(C)C(=O)[C@H](CC(C)C)N(C)C(=O)[C@@H](C)NC(=O)[C@H](C)NC(=O)[C@H](CC(C)C)N(C)C(=O)[C@H](C(C)C)NC(=O)[C@H](CC(C)C)N(C)C(=O)CN(C)C1=O` (single isomer, unassigned) showed an IC50 of 1 to 1000 nM.

Compound `CC[C@@H]1NC(=O)[C@H]([C@@H]2OC(O[C@H](C)c3cc(Cl)cc(Cl)c3)C[C@H]2C)N(C)C(=O)[C@H](C(C)C)N(C)C(=O)[C@H](CC(C)C)N(C)C(=O)[C@H](CC(C)C)N(C)C(=O)[C@@H](C)NC(=O)[C@H](C)NC(=O)[C@H](CC(C)C)N(C)C(=O)[C@H](C(C)C)NC(=O)[C@H](CC(C)C)N(C)C(=O)CN(C)C1=O` (single isomer, unassigned) gave an IC50 of 1 to 1000 nM.

The IC50 is the concentration that inhibits the measured activity by half. A low value points to greater potency in that assay.
